Source: US20050042213A1, “Methods and pharmaceutical compositions for modulating heparanase activation and uses thereof” (InSight Biopharmaceuticals Ltd., priority 2003, published 2005)

By UniProt entry, the sequences of proteins in these tests, tags left out. Residues count along the entry.
UniProt P09038, 143-288 limits assumed: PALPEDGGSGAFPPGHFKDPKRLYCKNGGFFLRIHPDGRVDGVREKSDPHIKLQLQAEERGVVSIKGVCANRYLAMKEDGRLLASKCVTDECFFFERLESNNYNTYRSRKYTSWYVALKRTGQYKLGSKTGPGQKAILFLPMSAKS
UniProt Q9Y251, 36-543 K307R limits assumed: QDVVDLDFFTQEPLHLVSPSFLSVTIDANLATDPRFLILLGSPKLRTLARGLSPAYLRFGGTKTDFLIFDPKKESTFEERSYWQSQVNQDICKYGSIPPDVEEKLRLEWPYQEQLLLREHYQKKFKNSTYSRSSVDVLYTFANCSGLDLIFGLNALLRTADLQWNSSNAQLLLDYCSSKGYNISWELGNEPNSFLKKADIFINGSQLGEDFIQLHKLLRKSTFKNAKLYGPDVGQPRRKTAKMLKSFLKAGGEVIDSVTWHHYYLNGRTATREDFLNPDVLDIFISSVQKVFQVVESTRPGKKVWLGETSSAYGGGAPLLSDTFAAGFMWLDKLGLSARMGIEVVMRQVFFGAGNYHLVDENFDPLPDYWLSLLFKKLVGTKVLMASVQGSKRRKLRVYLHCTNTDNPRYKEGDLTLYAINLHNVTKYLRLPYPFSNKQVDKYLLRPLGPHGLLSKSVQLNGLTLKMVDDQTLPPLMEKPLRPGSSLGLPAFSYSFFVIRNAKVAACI
UniProt Q9Y251, 36-109 limits assumed: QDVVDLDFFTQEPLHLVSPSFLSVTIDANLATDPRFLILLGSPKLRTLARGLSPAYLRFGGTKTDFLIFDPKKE
UniProt Q9Y251, 158-543 K307R limits assumed: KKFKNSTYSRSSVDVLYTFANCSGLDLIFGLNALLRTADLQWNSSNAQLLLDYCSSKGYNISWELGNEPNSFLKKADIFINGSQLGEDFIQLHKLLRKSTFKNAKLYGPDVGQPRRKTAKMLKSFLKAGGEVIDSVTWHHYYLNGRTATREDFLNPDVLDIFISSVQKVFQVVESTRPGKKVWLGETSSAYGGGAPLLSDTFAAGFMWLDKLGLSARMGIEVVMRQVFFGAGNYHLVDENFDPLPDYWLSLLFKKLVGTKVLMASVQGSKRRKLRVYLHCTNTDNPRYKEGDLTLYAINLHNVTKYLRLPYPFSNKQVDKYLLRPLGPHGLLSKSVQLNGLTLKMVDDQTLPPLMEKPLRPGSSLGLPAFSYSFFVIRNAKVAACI
UniProt P15692, 27-191 isoform 4 limits assumed: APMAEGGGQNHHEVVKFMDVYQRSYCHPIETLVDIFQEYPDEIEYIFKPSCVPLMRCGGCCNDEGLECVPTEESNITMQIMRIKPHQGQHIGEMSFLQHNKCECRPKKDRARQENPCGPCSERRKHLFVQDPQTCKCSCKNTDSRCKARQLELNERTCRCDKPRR

Each compound was assayed against β-FGF (Homo sapiens, UniProt P09038) (assay: Elisa assay for binding of β-FGF to heparin). Details: read-out: IC50 FGF; inhibition of β-FGF binding to heparin.

With `O=C(O)CCCCCN1C(=O)/C(=C\c2ccc(-c3cccc(Cl)c3)o2)SC1=S` as the compound, how does the IC50 read?
The IC50 was 5.8 µM.

What follows are compounds tested against heparanase (H53) (Homo sapiens, UniProt Q9Y251, K307R) (assay: Heparanase activity inhibition (H53), DMB assay). Details: not given.

`O=C(O)CCCCCN1C(=O)/C(=C\c2ccc(-c3cccc(Cl)c3)o2)SC1=S` was tested. Which “heparanase activity inhibition (H53) in addition to inhibition of pro-heparanase activation” value did it give?
The value was “dual activity”.

Same assay, conditions: read-out: IC50 H53; heparanase activity inhibition (H53); NI = no inhibition

For `O=C(O)CCCCCN1C(=O)/C(=C\c2ccc(-c3cccc(Cl)c3)o2)SC1=S`, which IC50 is on record?
Its IC50 is 10 µM.

What follows are compounds tested against VEGF (Homo sapiens, UniProt P15692) (assay: Elisa assay for binding of VEGF to heparin). Details: read-out: IC50 VEGF; inhibition of VEGF binding to heparin.

`O=C(O)CCCCCN1C(=O)/C(=C\c2ccc(-c3cccc(Cl)c3)o2)SC1=S` was tested. Which IC50 did it give?
The IC50 was 4.2 µM.

These compounds were tested against pro-heparanase (H60) (Homo sapiens, UniProt Q9Y251, K307R) (assay: Pro-heparanase activation in a cell-based assay (293 cells, DMB assay)). Details: read-out: IC50 H60; inhibition of pro-heparanase activation (H60); Table 15.

Which IC50 does the source give for `O=C(O)CCCCCN1C(=O)/C(=C\c2ccc(-c3cccc(Cl)c3)o2)SC1=S` here?
The IC50 was 0.58 µM.

Same assay, conditions: read-out: IC50 H60; inhibition of pro-heparanase activation; Table 7, 5-(5-Phenyl-furan-2-ylmethylene)rhodanine analogs

With `CCCC(C(=O)O)N1C(=O)/C(=C\c2ccc(-c3ccc([N+](=O)[O-])cc3)o2)SC1=S` (stereo not shown) as the compound, how does the IC50 read?
The IC50 was 7 µM.

For `Cc1c(N2C(=O)/C(=C\c3ccc(-c4ccc(Cl)c(Cl)c4)o3)SC2=S)c(=O)n(-c2ccccc2)n1C`, which IC50 is on record?
Its IC50 is 1.3 µM.

With `O=C(O)c1cccc(-c2ccc(/C=C3/SC(=S)N(c4cccc(C(F)(F)F)c4)C3=O)o2)c1` as the compound, how does the IC50 read?
The IC50 was 4 µM.

With `O=C(O)c1ccc(-c2ccc(/C=C3/SC(=S)N(c4cccc(F)c4)C3=O)o2)cc1` as the compound, how does the IC50 read?
Its IC50 is 2 µM.

For `O=C1/C(=C\c2ccc(-c3ccc(Cl)cc3)o2)SC(=S)N1CCS(=O)(=O)O`, which IC50 is on record?
Its IC50 is 1.8 µM.

`CN1C(=O)/C(=C\c2ccc(-c3cccc(Br)c3)o2)SC1=S` was tested. Which IC50 did it give?
The IC50 was 5.4 µM.

With `O=C(O)CC(C(=O)O)N1C(=O)/C(=C\c2ccc(-c3ccc([N+](=O)[O-])cc3)o2)SC1=S` (stereo not shown) as the compound, how does the IC50 read?
Its IC50 is 15 µM.

`O=C(O)c1ccc(-c2ccc(/C=C3/SC(=S)N(c4cccc(Cl)c4)C3=O)o2)cc1` was tested. Which IC50 did it give?
Its IC50 is 2.5 µM.

How did the IC50 turn out when `Cc1c(N2C(=O)/C(=C\c3ccc(-c4cccc([N+](=O)[O-])c4)o3)SC2=S)c(=O)n(-c2ccccc2)n1C` was run?
The IC50 was 0.98 µM.

Which IC50 does the source give for `Cc1c(N2C(=O)/C(=C\c3ccc(-c4ccc(Cl)cc4Cl)o3)SC2=S)c(=O)n(-c2ccccc2)n1C` here?
The IC50 was 0.4 µM.

How did the IC50 turn out when `O=C(O)c1ccc(-c2ccc(/C=C3/SC(=S)N(c4cccc(C(F)(F)F)c4)C3=O)o2)cc1` was run?
Its IC50 is 3 µM.

`NS(=O)(=O)c1ccc(-c2ccc(/C=C3/SC(=S)N(C4CCS(=O)(=O)C4)C3=O)o2)cc1` (stereo not shown) was tested. Which IC50 did it give?
The IC50 was 14 µM.

For `O=C(O)c1cccc(-c2ccc(/C=C3/SC(=S)N(c4cccc(Cl)c4)C3=O)o2)c1`, which IC50 is on record?
Its IC50 is 6 µM.

`O=C(O)CCCCCN1C(=O)/C(=C\c2ccc(-c3cccc(Cl)c3)o2)SC1=S` was tested. Which IC50 did it give?
Its IC50 is 0.58 µM.

Which IC50 does the source give for `Cc1c(N2C(=O)/C(=C\c3ccc(-c4cc(Cl)ccc4Cl)o3)SC2=S)c(=O)n(-c2ccccc2)n1C` here?
Its IC50 is 3 µM.

Which IC50 does the source give for `Cc1c(N2C(=O)/C(=C\c3ccc(-c4cccc(Cl)c4)o3)SC2=S)c(=O)n(-c2ccccc2)n1C` here?
Its IC50 is 0.18 µM.

For `O=C(O)c1ccc(-c2ccc(/C=C3/SC(=S)N(C4CCCCC4)C3=O)o2)cc1`, which IC50 is on record?
Its IC50 is 11 µM.

Same assay, conditions: read-out: IC50 H60; inhibition of pro-heparanase activation; Table 9, 5-Benzylidene-rhodanine analogs

Which IC50 does the source give for `C=CCN1C(=O)/C(=C\c2cc(Cl)ccc2O)SC1=S` here?
The IC50 was 8.5 µM.

Which IC50 does the source give for `O=C(O)CCCCCN1C(=O)/C(=C\c2ccc(Br)cc2)SC1=S` here?
Its IC50 is 118 µM.

With `O=C1/C(=C\c2ccccc2)SC(=Nc2ccc(O)cc2)N1c1ccc(O)cc1` as the compound, how does the IC50 read?
Its IC50 is 20 µM.

How did the IC50 turn out when `CCN1C(=O)/C(=C\c2ccc(O)c([N+](=O)[O-])c2)SC1=S` was run?
Its IC50 is 29 µM.

Which IC50 does the source give for `Cc1ccc(/C=C2/SC(=S)N(CCCC(=O)Nc3cc(Cl)cc(Cl)c3)C2=O)cc1` here?
Its IC50 is 2 µM.

How did the IC50 turn out when `O=C(O)CCCCCCCCCCN1C(=O)/C(=C\c2cccc(Br)c2)SC1=S` was run?
The IC50 was 8 µM.

For `O=C1/C(=C\c2ccc(Cl)cc2Cl)SC(=S)N1c1cccc(C(F)(F)F)c1`, which IC50 is on record?
Its IC50 is 39 µM.

Which IC50 does the source give for `O=C1/C(=C\c2ccccc2)SC(=S)N1c1cccc(O)c1` here?
The IC50 was 9 µM.

Which IC50 does the source give for `O=C1/C(=C\c2ccc([N+](=O)[O-])cc2)SC(=S)N1C1CCS(=O)(=O)C1` (stereo not shown) here?
The IC50 was 103 µM.

Which IC50 does the source give for `CN1C(=O)/C(=C\c2cc(Cl)ccc2O)SC1=S` here?
The IC50 was 8.5 µM.

`Cc1c(N2C(=O)/C(=C\c3ccc(Cl)cc3)SC2=S)c(=O)n(-c2ccccc2)n1C` was tested. Which IC50 did it give?
Its IC50 is 12 µM.

For `Cc1c(N2C(=O)/C(=C\c3c(F)cccc3Cl)SC2=S)c(=O)n(-c2ccccc2)n1C`, which IC50 is on record?
The IC50 was 57 µM.

Same assay, conditions: read-out: IC50 H60; inhibition of pro-heparanase activation; Table 10, 2-(thio)oxo-dihydro-pyrimidine-4,6-dione analogs

How did the IC50 turn out when `Cc1ccc([N+](=O)[O-])cc1-c1ccc(C=C2C(=O)N(c3ccccc3)C(=S)N(c3ccccc3)C2=O)o1` was run?
Its IC50 is 42 µM.

`CN1C(=O)C(=Cc2ccc(-c3ccccc3Cl)o2)C(=O)N(C)C1=O` was tested. Which IC50 did it give?
The IC50 was 49 µM.

How did the IC50 turn out when `CCOc1cccc(N2C(=O)C(=Cc3ccc(-c4cccc([N+](=O)[O-])c4)o3)C(=O)NC2=S)c1` was run?
The IC50 was 9 µM.

With `O=C1NC(=S)NC(=O)C1=Cc1ccc(-c2cccc(C(=O)O)c2)o1` as the compound, how does the IC50 read?
Its IC50 is 23 µM.

For `Cc1cc(C)cc(N2C(=O)NC(=O)C(=Cc3ccc(-c4ccc(C(=O)O)c(Cl)c4)o3)C2=O)c1`, which IC50 is on record?
The IC50 was 25 µM.

How did the IC50 turn out when `CN1C(=O)C(=Cc2ccc(-c3ccc(C(=O)O)c(O)c3)o2)C(=O)N(C)C1=O` was run?
Its IC50 is 18 µM.

`Cc1c(-c2ccc(C=C3C(=O)NC(=O)NC3=O)o2)ccc([N+](=O)[O-])c1C` was tested. Which IC50 did it give?
Its IC50 is 23 µM.

With `O=C1NC(=O)N(c2ccc(Cl)cc2)C(=O)C1=Cc1ccc(-c2ccc(C(=O)O)c(Cl)c2)o1` as the compound, how does the IC50 read?
The IC50 was 19 µM.

For `O=C(O)c1cccc(-c2ccc(C=C3C(=O)N(c4ccccc4)C(=S)N(c4ccccc4)C3=O)o2)c1`, which IC50 is on record?
Its IC50 is 3.5 µM.

Which IC50 does the source give for `CCOC(=O)c1cc(-c2ccc(C=C3C(=O)NC(=O)NC3=O)o2)ccc1Cl` here?
The IC50 was 40 µM.

Which IC50 does the source give for `O=C1NC(=O)N(c2ccc(Cl)cc2)C(=O)C1=Cc1ccc(-c2ccccc2Cl)o1` here?
Its IC50 is 19 µM.

Which IC50 does the source give for `Cc1ccc(N2C(=O)C(=Cc3ccc(-c4cccc(C(=O)O)c4)o3)C(=O)NC2=S)cc1` here?
Its IC50 is 58 µM.

How did the IC50 turn out when `O=C1NC(=S)NC(=O)C1=Cc1ccc(-c2ccc(C(=O)O)c(O)c2)o1` was run?
Its IC50 is 6 µM.

How did the IC50 turn out when `CCOc1ccc(N2C(=O)NC(=O)C(=Cc3ccc(-c4ccc(C(=O)O)c(Cl)c4)o3)C2=O)cc1` was run?
The IC50 was 2.3 µM.

How did the IC50 turn out when `Cc1ccc(N2C(=O)NC(=O)C(=Cc3ccco3)C2=O)cc1` was run?
Its IC50 is 5 µM.
